Records with an inconclusive call do not appear.
Test system: U2OS PGC1a acetylation AlphaLISA, overnight
Test: PGC1a acetylation increase, cellular AlphaLISA – cell-based, cherry-picked samples, set 6, dose response (AID 720513);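 also: cells made to overexpress flag tagged PGC1a plus GCN5 acetyltransferase by viral infection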

SMILES: O=c1[nH]c2ccccc2n1C1CCN(C(c2ccccc2OC(F)(F)F)c2nnnn2C2CCCCC2)CC1 (stereo unspecified)
- AC40: 11.4 µM

Source: PubChem BioAssay AID720513 (Broad Institute, 2013)
